The source of these data is patent publication US8088886B2, “Lipoprotein associated phospholipase A2, inhibitors thereof and use of the same in diagnosis and therapy” (Smith-Kline Beecham P.L.C., priority 1993, dated 2012).

Protein sequences, listed by entry. Tags and fused reporters are not part of them. Residues count along the entry.
UniProt Q13093, 22-441 limits assumed: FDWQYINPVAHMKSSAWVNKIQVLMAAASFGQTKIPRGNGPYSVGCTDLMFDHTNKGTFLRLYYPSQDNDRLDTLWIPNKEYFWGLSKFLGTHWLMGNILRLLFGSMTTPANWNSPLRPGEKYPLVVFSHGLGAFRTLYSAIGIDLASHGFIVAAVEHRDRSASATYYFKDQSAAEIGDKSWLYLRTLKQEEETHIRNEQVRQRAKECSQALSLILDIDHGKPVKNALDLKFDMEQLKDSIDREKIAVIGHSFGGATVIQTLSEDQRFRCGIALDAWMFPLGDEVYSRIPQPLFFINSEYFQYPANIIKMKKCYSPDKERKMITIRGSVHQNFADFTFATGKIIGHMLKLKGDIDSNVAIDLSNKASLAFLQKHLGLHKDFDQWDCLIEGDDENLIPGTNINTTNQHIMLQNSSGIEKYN

Molecules are shown by their SMILES.

One assay relates to LDL. As to the kind of experiment: Copper stimulated LDL oxidation (conjugate diene formation, absorption at 234 nm). The conditions noted are these: copper (5 μM)-stimulated LDL (150 μg/ml), absorbance at 234 nm vs control vehicle, FIG. 1; tested form: drawn as phosphate monoanion, counter-io. The protocol:
2. Copper Stimulated LDL Oxidation:
Copper stimulated oxidation of LDL is routinely measured by following the increase in conjugate diene formation by monitoring the change in absorption at 234 nm. This assay can be used to study inhibitors of oxidative modification of LDL.
FIG. 1 is a graph of absorbance at 234 nm against time (min) in a study of inhibition of copper (5 μM)-stimulated LDL (150 μg/ml) oxidation by compound 4 vs control vehicle.

Another assay has as its target human LDL (Homo sapiens, UniProt Q13093). As to the kind of experiment: Inhibition of Cu2+ stimulated lyso-phosphatidylcholine (lyso-PtdCho) formation in LDL. Particulars: read-out: IC50 for inhibition of LDL lyso-PtdCho accumulation stimulated by copper ions; human LDL 0.25 mg protein/ml, 15 min pre-incubation at 37° C., 5 μM Cu2+; tested form: drawn as phosphate monoanion, counter-io. The protocol:
3. Inhibition of Cu^2+ Stimulated lyso-phosphatidylcholine (lyso-PtdCho) Formation.
A 1 ml aliquot of human LDL (0.25 mg protein/ml) was incubated for 15 min at 37° C. with compound or vehicle. 5 μM Cu^2+ was then added to allow oxidation/lyso-PtdCho formation to occur. The incubation was terminated by the addition of 3.75 ml chloroform/methanol/c HCl (200:400:5, v/v/v). Following the addition of 1.25 ml chloroform and 1.25 ml 0.1M HCl, the mixture was vortexed and centrifuged. The lower phase was carefully removed and the upper phase re-extracted with an equal volume of synthetic lower phase. The extracts were pooled and dried under nitrogen.
Phospholipids were reconstituted into 50 μl chloroform/methanol (2:1 v/v). 10 μl aliquots were spotted on to pre-run silica gel HPTLC plates and then developed in chloroform/methanol 25-30% methylamine (60:20:5 v/v/v). Plates were subsequently sprayed with the flourescent indicator, 2-p-toluidinylnaphthalene-6-sulphonic acid (1 mM in 50 mM Trs/HCl, pH 7.4) to identify phospholipid components. Fluorescence was measured at 222 nm using a CAMAG TLC scanner. Lipoprotein lyso-PtdCho content was quantified using a standard curve (0.05-0.5 μg) prepared in parallel.

Another assay has as its target Lp-PLA2 (Homo sapiens, UniProt Q13093). As to the kind of experiment: Screen for Lp-PLA2 inhibition (turnover of artificial substrate (A), absorbance at 405 nm). The conditions noted are these: 37° C., pH 7.4, 10 min pre-incubation, 20 μM substrate (A); tested form: drawn as phosphate monoanion, counter-io. The protocol:
1. Screen for Lp-PLA2 Inhibition.
Enzyme activity was determined by measuring the rate of turnover of the artificial substrate (A) at 37° C. in 50 mM HEPES (N-2-hydroxyethylpiperazine-N′-2-ethanesulphonic acid) buffer containing 150 mM NaCl, pH 7.4.
Assays were performed in 96 well titre plates.
Lp-PLA2 was pre-incubated at 37° C. with vehicle or test compound for 10 min in a total volume of 180 μl. The reaction was then initiated by the addition of 20 μl 10× substrate (A) to give a final substrate concentration of 20 μM. The reaction was followed at 405 nm for 20 minutes using a plate reader with automatic mixing. The rate of reaction was measured as the rate of change of absorbance.

What is called IC50 is the concentration needed to halve the response being measured.

Turning to `CCCCCCCCCCCCCCCCCCOC[C@H](COP(=O)(O)OCCSC)NC(C)=O`, the “inhibition of LDL oxidation (lag phase of conjugate diene formation)” value with LDL is recorded as “prolongation of the lag phase”. Also, the 50% inhibitory concentration (IC50) at human LDL stood at 30000 nM; on Lp-PLA2, 80 nM.

Consider `CCCCCCCCCCCCCCCCCCOC[C@H](COP(=O)(O)OCCOC(C)=O)NC(C)=O`, for which the half-maximal inhibitory concentration (IC50) on Lp-PLA2 was 200 nM.

The molecule `CCCCCCCCCCCCCCCCCCOC[C@H](COP(=O)(O)OCCO)NC(C)=O` gave an IC50 against Lp-PLA2 of 450 nM.
